According to patent US6004967A, “Psoriasis treatment with quinazoline compounds” (priority 1997, dated 1999):
pIC50: −log10 of the molar value.

Chains of the proteins cited; added tags and fusions are not shown. Residues count along the entry.
UniProt P00533, 25-1210: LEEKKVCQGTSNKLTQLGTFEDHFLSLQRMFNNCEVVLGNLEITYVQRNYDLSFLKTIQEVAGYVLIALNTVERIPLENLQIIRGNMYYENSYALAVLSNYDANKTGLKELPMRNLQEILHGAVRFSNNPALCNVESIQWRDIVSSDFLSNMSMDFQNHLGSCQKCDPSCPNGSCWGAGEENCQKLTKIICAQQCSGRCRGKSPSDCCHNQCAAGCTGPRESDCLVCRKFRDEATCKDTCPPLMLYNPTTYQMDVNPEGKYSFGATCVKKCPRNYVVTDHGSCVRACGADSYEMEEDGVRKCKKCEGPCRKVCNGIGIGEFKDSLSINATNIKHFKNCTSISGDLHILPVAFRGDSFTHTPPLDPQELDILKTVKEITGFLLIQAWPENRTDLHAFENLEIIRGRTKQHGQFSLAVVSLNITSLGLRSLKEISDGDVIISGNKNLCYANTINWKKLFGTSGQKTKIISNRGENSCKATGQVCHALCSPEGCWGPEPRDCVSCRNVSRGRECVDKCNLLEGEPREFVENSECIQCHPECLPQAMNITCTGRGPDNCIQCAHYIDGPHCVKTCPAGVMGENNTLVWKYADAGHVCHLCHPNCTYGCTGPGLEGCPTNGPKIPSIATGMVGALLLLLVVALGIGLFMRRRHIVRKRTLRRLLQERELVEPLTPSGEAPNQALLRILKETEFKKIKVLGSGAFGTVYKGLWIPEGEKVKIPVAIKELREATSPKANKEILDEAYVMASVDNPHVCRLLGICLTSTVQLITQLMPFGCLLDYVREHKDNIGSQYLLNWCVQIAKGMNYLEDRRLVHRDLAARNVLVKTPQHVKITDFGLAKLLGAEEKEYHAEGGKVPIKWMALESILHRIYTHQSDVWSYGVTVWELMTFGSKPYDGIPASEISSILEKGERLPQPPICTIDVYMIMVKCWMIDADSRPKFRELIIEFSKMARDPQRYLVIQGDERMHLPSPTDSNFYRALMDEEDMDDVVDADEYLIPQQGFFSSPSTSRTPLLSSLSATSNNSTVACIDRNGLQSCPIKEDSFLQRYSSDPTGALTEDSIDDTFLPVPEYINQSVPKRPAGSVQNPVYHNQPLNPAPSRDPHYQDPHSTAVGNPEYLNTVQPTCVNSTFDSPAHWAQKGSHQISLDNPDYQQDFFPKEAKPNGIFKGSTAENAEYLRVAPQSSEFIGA

Legend:
human EGF-R = target: T1, human EGF-R (Homo sapiens, UniProt P00533); assay: EGF-R whole cell kinase assay (EGF-R-3T3 ELISA); format: cell-based
T1 construct: expressed in transfected cells; host or cells: NIH3T3 clone C7 (mouse fibroblasts)

in vivo = settings: mouse, ip

SMILES	pIC50 (human EGF-R)	LD50 at 168 h (in vivo) [mg/kg]	LD10 (in vivo; 10080 min) [mg/kg]
COc1cc2ncnc(Nc3cccc(Cl)c3)c2cc1OC [A2, 4-(3-Chlorophenylamino)-6,7-dimethoxyquinazoline]	> 7.82		
COc1cc2ncnc(Nc3cccc(Br)c3)c2cc1OC [A1, 4-(3-Bromophenylamino)-6,7-dimethoxyquinazoline]		~300	75
